Test results published in ChEMBL document CHEMBL2321866 (J Med Chem, 2013).

Chains of the proteins cited; added tags and fusions are not shown.
UniProt P21554, whole entry: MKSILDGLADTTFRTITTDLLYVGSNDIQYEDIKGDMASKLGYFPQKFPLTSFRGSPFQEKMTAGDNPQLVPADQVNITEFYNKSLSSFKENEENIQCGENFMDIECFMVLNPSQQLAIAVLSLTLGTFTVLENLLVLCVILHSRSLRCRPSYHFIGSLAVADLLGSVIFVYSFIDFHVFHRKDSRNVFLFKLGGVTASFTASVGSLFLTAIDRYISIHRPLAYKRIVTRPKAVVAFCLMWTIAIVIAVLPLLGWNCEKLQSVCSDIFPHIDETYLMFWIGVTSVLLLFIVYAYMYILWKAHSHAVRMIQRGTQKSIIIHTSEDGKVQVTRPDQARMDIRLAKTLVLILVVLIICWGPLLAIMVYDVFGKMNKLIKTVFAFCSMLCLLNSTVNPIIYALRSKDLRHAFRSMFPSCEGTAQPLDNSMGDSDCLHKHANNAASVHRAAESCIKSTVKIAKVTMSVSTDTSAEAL

Legend:
[1] = organism: Homo sapiens; experiment: Selectivity index, ratio of Ki for CB1 receptor (unknown origin) to Ki for CB2 receptor (unknown origin)
[2] = molecular target: Cannabinoid receptor 1 (Homo sapiens, UniProt P21554)

Compound	Ratio Ki [1]	Ki [2] [µM]
CCN(CC)c1ccc(CN(c2ccc(C)cc2)S(=O)(=O)c2ccc(C)cc2)cc1	80	
CCN(CC)c1ccc(CN([C@]23C[C@H]4C[C@H](C[C@H](C4)C2)C3)S(=O)(=O)c2ccc(F)cc2)cc1	170	
CCN(CC)c1ccc(CN([C@]23C[C@H]4C[C@H](C[C@H](C4)C2)C3)S(=O)(=O)c2cccc(C)c2)cc1	432	
CCN(CC)c1ccc(CN([C@]23C[C@H]4C[C@H](C[C@H](C4)C2)C3)S(=O)(=O)c2ccc(OC)cc2)cc1		7.3
